The list shows a part of the results, in another mix than the full data. Activity calls are given as the source filed them.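 How the source made its calls: active means inhibition above the batch mean plus 3 SD and confirmed as a hit by visual image inspection (cut at about 30% in these data, passing the limit was not always enough); inconclusive means above the inhibition threshold but rejected on visual inspection; inactive means the rest.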
experiment: modifiers of F-actin cytoskeleton organization, primary screen, imaging, HUVEC, phalloidin staining, high-content imaging (AID 836); conditions: HUVEC TNFa F-actin phalloidin imaging, at 2 µM, hits give high values

| Compound | inhibition |
| --- | --- |
| CC1CCN(C(=O)Oc2c(Cl)cc(Cl)c3cccnc23)CC1 | inactive: 14.9% |
| CC(=O)N1C2C3N(C(C)=O)C1C1N(C(C)=O)C(C(N1C(C)=O)N3C(C)=O)N2C(C)=O | inactive: -5% |
| O=[N+]([O-])c1cccc2n[nH]nc12 | inactive: 3.4% |
| CCc1nc2c(n1)c1c(non1O)c1c2no[n+]1[O-] | inactive: -2.8% |
| CC(C)CC(=O)NC(Sc1ccc(Cl)cc1)C(Cl)(Cl)Cl (configuration not stated) | inactive: 10.8% |
| Oc1ccccc1CNc1ccccn1 | inactive: -0.5% |
| Cc1c2non([O-])c-2c(C)[n+](=O)[n+]1[O-] | inactive: -1.2% |
| CN1CCCC(OC(=O)C(c2ccccc2)c2ccccc2)C1 (configuration not stated) | inactive: 6% |
| CCOP(=O)(Nc1ccccc1)OCC | inactive: 10.4% |
| CCC(=O)N1C2C3N(C(=O)CC)C1C1N(C(=O)CC)C(C(N1C(=O)CC)N3C(=O)CC)N2C(=O)CC | inactive: -15.1% |
| CCOC(=O)NC(Sc1ccccc1)C(Cl)(Cl)Cl (configuration not stated) | inactive: 12.1% |
| O=P1(Nc2nc3ccc(Cl)cc3s2)COc2ccccc2O1 (configuration not stated) | inactive: -28.3% |
| c1nnnn1CCn1cnnn1 | inactive: 7.7% |
| O=P(Nc1nccs1)(c1ccccc1)c1ccccc1 | inactive: 29.1% |
| O=C(OC1CN2CCC1CC2)c1cccc(Cl)c1 (configuration not stated) | inactive: -7.7% |
| Cc1ccc(OCC(=O)OC2CN3CCC2CC3)cc1 (configuration not stated) | inactive: 12.9% |

| Compound | inhibition |
| --- | --- |
| O=P1(Nc2ccc(Br)cn2)COc2ccccc2OC1 | inactive: 30.5% |
| O=P1(Nc2ncccn2)COc2ccccc2OC1 | inactive: 8.1% |
| Cc1nn(-c2ccccc2)c2c1P(=O)(N1CCOCC1)N(C)C(c1ccccc1)=N2 (configuration not stated) | inactive: 1.5% |
| CC1(CBr)Cn2c(nc3ccccc3c2=O)S1 (configuration not stated) | inactive: 14.8% |
| Clc1n[nH]nc1-c1nn[nH][15n]1 | inactive: 9.6% |
| O=P1(Nc2ccccn2)COc2ccccc2OC1 | inactive: -56.7% |
| Cc1cccc(OCC(=O)OC2CN3CCC2CC3)c1 (configuration not stated) | inactive: -9.8% |
| O=[N+]([O-])c1ccc2c(c1)nnn2O | inactive: -19.2% |
| CCOP1(=S)c2c(C)nn(CCC#N)c2N=C(c2ccc(F)cc2)N1C (configuration not stated) | inactive: 3.8% |
| CCOP1(=S)c2c(C)nn(CCC#N)c2N=C(c2ccccc2F)N1C (configuration not stated) | inactive: -23.3% |
| CCN(CC)C(=S)SC(NC=O)C(Cl)(Cl)Cl (configuration not stated) | inactive: 14.6% |
| ClCCSc1nnc(-c2cccnc2)o1 | inactive: -20.1% |
| O=C(OC1CN2CCC1CC2)C12CC3CC(CC(C3)C1)C2 (configuration not stated) | inactive: 23.6% |
| CCC(C)N(CC(C)C)C(=S)SC(NC(C)=O)C(Cl)(Cl)Cl (configuration not stated) | inactive: -20.2% |
| O=C(COc1ccccc1)OC1CN2CCC1CC2 (configuration not stated) | inactive: 0.3% |
| COP1(=S)c2c(C)nn(CCC#N)c2N=C(c2ccc(F)cc2)N1C (configuration not stated) | inactive: -11.7% |

Source: PubChem BioAssay AID836 (Columbia University Molecular Screening Center, 2007)
